Values quoted from earlier work as cited in patent US12226503B2, “Prebiotic skin care compositions containing carboxylic acids” (priority 2019, dated 2025).

Details: toxic or irritant for humans or on skin

For `O=C(O)CCC(=O)C(=O)O` [α-Keto-glutaric acid], the Toxicity is given as “+”.
